The record followed here is article PMC2174572 (The Journal of Cell Biology, 2000).

This test deals with nucleolin purified from K562 cells (human (endogenous in K562)). Put plainly: co-IP.

B1: His6-tagged hRPA3 (His-hRPA3) (natural protein)
chain: MVDMMDLPRSRINAGMLAQFIDKPVCFVGRLEKIHPTGKMFILSDGEGKNGTIELMEPLDEEISGIVEVVGRVTAKATILCTSYVQFKEDSHPFDLGLYNEAVKIIHDFPQFYPLGIVQHD
With B1, the binding result is reported as “binds”.
